## Binding of CDR-mutated scFvs to a peptide of the spike HR2 region

Reference: Engelhart et al. 2022, doi:10.1038/s41597-022-01779-4. File: FLAb, binding data.

The target is the same throughout: PDVDLGDISGINAS, from the HR2 region of SARS-CoV-2 spike.

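The starting antibody came from a phage panning campaign against this peptide. Library AAYL49 holds single substitutions and randomly drawn double and triple substitutions in the CDRs. The assay is AlphaSeq: two haploid yeast populations carry antibody and antigen on their surface. The frequency of each diploid, read from paired DNA barcodes, reflects how well the two displayed proteins bind. Read counts were normalised to the haploid input and turned into Kd by a linear fit to BCL2-family pairs of known affinity, for each replicate. The assay was run in three technical replicates.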

Parent: Ab-14, a human scFv built as VH, three GGGGS repeats, VL. Only the CDRs of the heavy chain vary.
VH: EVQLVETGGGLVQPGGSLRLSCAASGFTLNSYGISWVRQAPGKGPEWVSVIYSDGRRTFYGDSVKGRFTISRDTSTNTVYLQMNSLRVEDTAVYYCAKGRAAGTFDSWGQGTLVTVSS
VL: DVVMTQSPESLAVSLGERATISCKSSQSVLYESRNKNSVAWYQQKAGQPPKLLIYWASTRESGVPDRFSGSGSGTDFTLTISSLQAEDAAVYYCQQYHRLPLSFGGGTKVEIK

Variants are written as CDR1, CDR2 and CDR3 of the heavy chain (limits as in the source). Parent: GFTLNSYGIS, VIYSDGRRTFYGDSVK, GRAAGTFDS.
Values are log10 of the apparent Kd in nM; lower means stronger binding.
An entry "ND" has no value in the source: the pair was not observed among the diploids in that replicate. This suggests poor binding but is not conclusive.
For reference, the parent read 0.65 as the reference entry and 4.11 (one replicate of three) as a member of this library.
Three control strains display no target. For library AAYL49, 15% of the pairings with them gave a signal, with a median of 4.06 and one signal in twenty below 2.83, so weak values seen in few replicates may be background. Also given: how often the same scFv was detected with the empty control strains, with their mean in brackets.

| # | CDR-H1 | CDR-H2 | CDR-H3 | log10 Kd (nM) by replicate | signal with controls |
|---|---|---|---|---|---|
| 1 | GFILNSYEIS | VIYSDNRRTFYGDSVK | GRAAGTFDS | ND ND ND | 3/9 (4.44) |
| 2 | GFLLNSYGIS | VIYSDGRRTFSGDSVP | GRAAGTFDS | ND ND ND | 0/9 |
| 3 | GFTLNSYGIS | VIYSDGRRTFYGDSVF | GRAIGTFCS | 1.92 1.40 1.95 | 1/9 (3.83) |
| 4 | GFTLNSMGIS | VIYSDGRRTFYGDRVK | GRWAGTFDS | 1.62 2.07 2.00 | 0/9 |
| 5 | GFTLNSGGIS | VIYSDGRRTFYGDSDK | GLAAGTFDS | ND ND ND | 2/9 (2.88) |
| 6 | CFTLNSYGIS | VIWSDGRRTFYGDGVK | GRAAGTFDS | 5.07 ND 3.57 | 6/9 (4.08) |
| 7 | GFTLNSYGIS | VIYSDGRRTNYGDSVK | PRAAGTFDE | 1.27 1.39 1.15 | 2/9 (4.60) |
| 8 | GFTLNSYGNS | VIYSDGRRRFYGDSVK | GRAAGLFDS | ND ND 4.17 | 0/9 |
| 9 | GFTLNSYGIS | VIYSDGRRTFYGDSVK | GRAAGTGHS | ND ND ND | 0/9 |
| 10 | GFTLNSYLIS | VIYSRGRRTFYGDSVK | GRAAGWFDS | ND ND ND | 0/9 |
| 11 | GFTLNSYGIS | RHYSQGRRTFYGDSVK | GRAAGTFDS | ND 3.29 ND | 1/9 (3.99) |
| 12 | GFTLNSYGIS | VIYSDGRRTFYGDSVK | GRIAGTFSS | 0.78 1.09 1.35 | 0/9 |
| 13 | GFRLNSYSIS | VIYSDGRRAFYGDSVK | GRAAGTFDS | ND ND ND | 1/9 (4.42) |
| 14 | GFRLPSYGIS | VIYSDGRRTFYGVSVK | GRAAGTFDS | ND ND ND | 1/9 (3.91) |
| 15 | LFTFNSYGIS | VIYSDGRRTFYGDSEK | GRAAGTFDS | ND ND ND | 0/9 |
| 16 | GFTLNAYGES | VIYSDGRRTFYGDSVK | GRAATTFDS | ND ND ND | 0/9 |
| 17 | GFTDNSYGIS | VIYSDGRRTFYGDSVK | GRAAGTFDS | 3.73 3.14 3.35 | 5/9 (3.56) |
| 18 | GFTLNNYGIS | VIYSDGRRTFYGDSVK | GRAAGTFDH | ND ND ND | 0/9 |
| 19 | QFTLNYYGIS | VIYWDGRRTFYGDSVK | GRAAGTFDS | ND 1.86 2.83 | 2/9 (3.94) |
| 20 | GITLNSYGIS | VIYSDGRRTFYGDTVK | GRAAGTGDS | 2.42 ND ND | 0/9 |
| 21 | GFTLLSYGIS | VIYSDGRRTFYGDSVA | GRAAGTFDS | 2.42 2.35 2.72 | 3/9 (4.51) |
| 22 | GFTPNSYGIG | VIYSDGRRTFYGDSVK | GRVAGTFDS | ND ND ND | 1/9 (2.98) |
| 23 | GFTLNSYGIS | VIYSMGRRTFYSDSVK | GRAAGTFDS | ND 5.27 4.09 | 1/9 (3.06) |
| 24 | GFTLDSYGIS | VIYSDGRETFYGDSVK | GRAAGSFDS | 3.49 ND ND | 1/9 (3.12) |
| 25 | CFTLNSYGIS | VIYSDGKRTFPGDSVK | GRAAGTFDS | ND 3.98 ND | 0/9 |
| 26 | GFTLNSYGIS | VIYSDGRRTFYGDWVK | GRAAGRFDS | ND ND ND | 0/9 |
| 27 | GRTMNSYGIS | VIYSDGRRTFYGDSVK | GRAAGTFDR | ND ND 3.36 | 1/9 (4.11) |
| 28 | GFTLDSYGIS | VIYSDGSRTFYGDSVK | GRAAGTIDS | 1.33 1.39 1.51 | 3/9 (4.81) |
| 29 | GRTLISYGIS | VIYSDGRRTFYGDSVK | GRAAGTFDH | ND ND ND | 3/9 (3.90) |
| 30 | TMTLNSYGIS | VIYSDGRRTFYGDSKK | GRAAGTFDS | 5.22 3.62 ND | 1/9 (3.44) |
| 31 | LCTLNSYGIS | VIYSDGRRTFYGDSVK | GEAAGTFDS | 4.16 3.48 ND | 0/9 |
| 32 | GFTLNSYRIS | VIYSDGRRTFYGDSVK | QRAAGAFDS | ND ND ND | 1/9 (3.23) |
| 33 | GATLNSYGIW | VIYSDGRRTFYGDSCK | GRAAGTFDS | ND ND 4.39 | 4/9 (5.42) |
| 34 | NFTLNSYGIS | VIYSDGCRTFYGDSVK | NRAAGTFDS | 3.00 2.71 3.84 | 8/9 (4.21) |

Repeated from above, the 5 best binders with a signal in all replicates:

{"CDR-H1": "GFTLNSYGIS", "CDR-H2": "VIYSDGRRTFYGDSVK", "CDR-H3": "GRIAGTFSS", "log10 Kd (nM) by replicate": "0.78 1.09 1.35", "signal with controls": "0/9"}
{"CDR-H1": "GFTLNSYGIS", "CDR-H2": "VIYSDGRRTNYGDSVK", "CDR-H3": "PRAAGTFDE", "log10 Kd (nM) by replicate": "1.27 1.39 1.15", "signal with controls": "2/9 (4.60)"}
{"CDR-H1": "GFTLDSYGIS", "CDR-H2": "VIYSDGSRTFYGDSVK", "CDR-H3": "GRAAGTIDS", "log10 Kd (nM) by replicate": "1.33 1.39 1.51", "signal with controls": "3/9 (4.81)"}
{"CDR-H1": "GFTLNSYGIS", "CDR-H2": "VIYSDGRRTFYGDSVF", "CDR-H3": "GRAIGTFCS", "log10 Kd (nM) by replicate": "1.92 1.40 1.95", "signal with controls": "1/9 (3.83)"}
{"CDR-H1": "GFTLNSMGIS", "CDR-H2": "VIYSDGRRTFYGDRVK", "CDR-H3": "GRWAGTFDS", "log10 Kd (nM) by replicate": "1.62 2.07 2.00", "signal with controls": "0/9"}